Our source for the Ka values is ChEMBL document CHEMBL1143357, “Synthesis and biological activities of high affinity taxane-based fluorescent probes” (Bioorg Med Chem Lett, 2009).

Each structure is given as a SMILES string.

This experiment is described as follows: Binding affinity to paclitaxel binding site of microtubule.

The compound `COc1cccc(C(=O)O[C@H]2[C@@H]3[C@]4(OC(C)=O)CO[C@@H]4C[C@H](OC(=O)[C@H](C)NC(=O)c4ccc(-c5c6cc(F)c(=O)cc-6oc6cc(O)c(F)cc56)c(C(=O)O)c4)[C@@]3(C)C(=O)[C@H](OC(C)=O)C3=C(C)[C@@H](OC(=O)[C@H](O)[C@@H](NC(=O)c4ccccc4)c4ccccc4)C[C@]2(O)C3(C)C)c1` returned a Ka of 6.8 ×10⁸ /M. Consider `COc1cccc(C(=O)O[C@H]2[C@@H]3[C@]4(OC(C)=O)CO[C@@H]4C[C@H](OC(=O)[C@H](C)NC(=O)c4ccc(-c5c6ccc(=O)cc-6oc6cc(O)ccc56)c(C(=O)O)c4)[C@@]3(C)C(=O)[C@H](OC(C)=O)C3=C(C)[C@@H](OC(=O)[C@H](O)[C@@H](NC(=O)c4ccccc4)c4ccccc4)C[C@]2(O)C3(C)C)c1`, for which the Ka came to 4.4 ×10⁸ /M. The compound `C/C=C(\C)C(=O)N[C@@H](c1ccccc1)[C@@H](O)C(=O)O[C@H]1C[C@@]2(O)[C@@H](OC(=O)c3cccc(N=[N+]=[N-])c3)[C@@H]3[C@]4(OC(C)=O)CO[C@@H]4C[C@H](OC(=O)[C@H](C)NC(=O)c4ccc(-c5c6ccc(=O)cc-6oc6cc(O)ccc56)c(C(=O)O)c4)[C@@]3(C)C(=O)[C@H](OC(C)=O)C(=C1C)C2(C)C` displayed a Ka of 12 ×10⁸ /M.
